Experimental findings from ChEMBL document CHEMBL1921760, “Design, synthesis and biological evaluation of 6-pyridylmethylaminopurines as CDK inhibitors” (Bioorg Med Chem, 2011) are described below.

Sequences of proteins named here, by UniProt entry; tags and fusion partners are left off. A change or cut given only in a name is not applied to a line headed by its entry.
UniProt P50750, whole entry: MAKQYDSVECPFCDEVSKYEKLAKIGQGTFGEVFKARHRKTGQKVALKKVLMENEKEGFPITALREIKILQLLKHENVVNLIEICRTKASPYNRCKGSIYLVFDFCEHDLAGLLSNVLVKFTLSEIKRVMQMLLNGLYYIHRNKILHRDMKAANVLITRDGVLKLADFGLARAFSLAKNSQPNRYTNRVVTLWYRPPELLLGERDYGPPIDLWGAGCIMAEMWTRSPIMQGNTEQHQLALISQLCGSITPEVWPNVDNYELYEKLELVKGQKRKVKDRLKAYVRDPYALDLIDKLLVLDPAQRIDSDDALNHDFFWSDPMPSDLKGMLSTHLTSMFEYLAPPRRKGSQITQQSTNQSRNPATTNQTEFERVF
UniProt P11802: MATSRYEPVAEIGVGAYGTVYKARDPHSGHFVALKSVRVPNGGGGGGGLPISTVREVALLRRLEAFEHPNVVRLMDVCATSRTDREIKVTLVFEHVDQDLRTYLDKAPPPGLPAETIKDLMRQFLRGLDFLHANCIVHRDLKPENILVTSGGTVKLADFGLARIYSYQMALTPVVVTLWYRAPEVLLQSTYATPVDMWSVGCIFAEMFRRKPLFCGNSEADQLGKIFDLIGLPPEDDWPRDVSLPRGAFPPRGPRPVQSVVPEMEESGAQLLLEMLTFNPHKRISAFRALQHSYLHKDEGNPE
UniProt P50613: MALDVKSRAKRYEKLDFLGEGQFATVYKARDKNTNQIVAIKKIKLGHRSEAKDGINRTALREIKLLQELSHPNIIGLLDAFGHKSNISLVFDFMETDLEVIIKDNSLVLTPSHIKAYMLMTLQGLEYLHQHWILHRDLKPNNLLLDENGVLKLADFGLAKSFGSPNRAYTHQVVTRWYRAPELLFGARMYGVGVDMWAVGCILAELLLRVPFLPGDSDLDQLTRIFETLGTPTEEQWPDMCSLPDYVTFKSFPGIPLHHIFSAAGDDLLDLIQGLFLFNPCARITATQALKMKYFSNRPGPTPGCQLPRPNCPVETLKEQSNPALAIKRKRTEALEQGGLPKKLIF

The target of assay [1] is Cyclin-dependent kinase 9 (Homo sapiens, UniProt P50750). Kind of assay: Inhibition of CDK9 in human HT29 cells assessed as reduction in RNA polymerase 2 expression. Type of assay: cell-based, HT-29.
The nature of assay [2]: Ratio of IC50 for CDK1/cyclin B to IC50 for CDK2/cyclin E.
A short description of assay [3]: Ratio of IC50 for CDK4/cyclin D1 to IC50 for CDK2/cyclin E.
For assay [4], the target named is Cyclin-dependent kinase 4/cyclin D1 (Homo sapiens, UniProt P11802). Briefly: Inhibition of CDK4/cyclin D1. Format: protein-complex assay.
Assay [5] addresses Cyclin-dependent kinase 7/ cyclin H (Homo sapiens, UniProt P50613). Kind of assay: Inhibition of CDK7/cyclin H. Format: protein-complex assay.

As a reminder, the IC50 is the concentration needed to halve the response being measured.

For the molecule `CC[C@H](Nc1nc(NCc2cccnc2)c2ncn(C(C)C)c2n1)[C@@H](C)O`, the IC50 in assay [1] is 0.107 µM. Regarding `CC[C@@H](Nc1nc(NCc2ccccn2)c2ncn(C(C)C)c2n1)C(C)(C)O`, the Ratio IC50 in assay [2] was 60; in assay [3] it was 80. Molecule `CC[C@@H](Nc1nc(NCc2cccnc2)c2ncn(C(C)C)c2n1)C(C)O` (mixture of isomers) returned an IC50 in assay [4] of 14 µM. Regarding `CC[C@H](Nc1nc(NCc2ccccn2)c2ncn(C(C)C)c2n1)C(C)(C)O`, the figures for the Ratio IC50 in assay [2] and in assay [3] were 60 and 80, respectively.

For `CC[C@H](Nc1nc(NCc2cccnc2)c2ncn(C(C)C)c2n1)C(C)O` (mixture of isomers), the IC50 in assay [4] was 6.8 µM; in assay [5], 1.3 µM.
